Amino acid sequences for entries named in this document (tags omitted). Residues count along the entry.
UniProt O60674, 808-1132: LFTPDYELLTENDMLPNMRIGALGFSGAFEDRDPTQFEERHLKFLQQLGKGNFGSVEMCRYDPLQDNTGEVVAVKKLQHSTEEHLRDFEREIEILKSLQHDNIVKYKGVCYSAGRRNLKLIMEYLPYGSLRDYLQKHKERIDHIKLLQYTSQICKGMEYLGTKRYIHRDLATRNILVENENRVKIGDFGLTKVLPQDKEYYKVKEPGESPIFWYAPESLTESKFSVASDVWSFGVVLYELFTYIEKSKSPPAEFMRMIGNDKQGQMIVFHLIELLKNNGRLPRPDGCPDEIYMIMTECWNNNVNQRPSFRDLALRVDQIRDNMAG
UniProt P04629, 440-796: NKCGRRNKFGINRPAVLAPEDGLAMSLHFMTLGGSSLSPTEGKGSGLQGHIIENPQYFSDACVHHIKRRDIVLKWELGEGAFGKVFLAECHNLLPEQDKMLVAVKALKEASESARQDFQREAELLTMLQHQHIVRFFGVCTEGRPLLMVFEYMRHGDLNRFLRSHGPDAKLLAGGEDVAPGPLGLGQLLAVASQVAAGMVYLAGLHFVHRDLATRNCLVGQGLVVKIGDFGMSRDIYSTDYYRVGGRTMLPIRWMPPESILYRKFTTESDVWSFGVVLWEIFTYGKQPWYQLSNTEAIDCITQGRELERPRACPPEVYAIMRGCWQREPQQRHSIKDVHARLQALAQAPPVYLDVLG

The first test concerns the target Human Jak2 kinase domain (Homo sapiens (Human), UniProt O60674). As to the kind of experiment: Jak2 Inhibition Assay (Omnia kinase assay). The test is classed as biochemical. The following applies: read-out: Jak2 Enzyme IC50. The procedure: The assays described in Examples C, D, E and F for the determination of JAK1, JAK2, JAK3 and Tyk2 kinase activity, respectively, utilized the Omnia® Kinase fluorescence peptide substrate-based technology (Invitrogen). […] The reactions were therefore read at excitation 360 nm and emission was measured at 485 nm every 50 seconds for 45 minutes using a PerkinElmer EnVision Multilabel Plate Reader.
The final buffer conditions for each of the JAK1, JAK2, JAK3 and Tyk2 assays were as follows: 25 mM HEPES, pH 7.4, 10 mM MgCl2, 0.01% Triton X-100 and 1 mM DTT.
Two-μL aliquots of these were transferred to a fresh plate for a ten-fold intermediate dilution with assay buffer. Five-μL aliquots of the diluted compounds were then transferred to 20-μL of assay mixtures described in Examples C, D, E and F for a final concentration of DMSO of 2%. […] For each plate, percent of control (POC) values were calculated for each well according to the following equation:
[formula] • where • Xmax=Average Uninhibited Controls • Xmin=Average Background IC50's were estimated from the POC's using a standard 4-parameter logistic model:
[formula] • where • A=Minimum Y (Bottom Asymptote) • B=Maximum Y (Top Asymptote) • C=EC50 • D=Slope Factor • X=Compound Concentration (nM) • Y=POC
The IC50 is defined as the concentration of inhibitor at which the POC equals 50 for the fitted curve.
Compounds of Formula I were screened for their ability to inhibit Jak2 using the general enzyme inhibition assay method, in which the assay mixture contained 500 μM ATP, 10 μM Omnia® Y7 peptide (Catalog # IVGN KNZ3071C, Invitrogen Corporation, Carlsbad, Calif.) and 4 nM Jak2 in a total volume of 20 μL. Human Jak2 kinase domain comprising amino acids 808-1132 was purchased from Invitrogen Corporation, Carlsbad, Calif. (catalog # IVGN PV4210).
With `CS(=O)(=O)N1CCC(NC(=O)c2cnn3ccc(N4CCC[C@@H]4c4cc(F)ccc4F)nc23)CC1` [Example 44, (R)-5-(2-(2,5-difluorophenyl)pyrrolidin-1-yl)-N-(1-(methylsulfonyl)piperidin-4-yl)pyrazolo[1,5-a]pyrimidine-3-carboxamide], the half-inhibitory concentration (IC50) stood at 388 nM. On the same count and under the same terms, to `C[C@H](NC(=O)c1cnn2ccc(N3C[C@@H](O)C[C@@H]3c3cccc(F)c3)nc12)C(F)(F)F` [Example 216, 5-((2R,4S)-2-(3-fluorophenyl)-4-hydroxypyrrolidin-1-yl)-N—((S)-1,1,1-trifluoropropan-2-yl)pyrazolo[1,5-a]pyrimidine-3-carboxamide] belongs 670 nM. Same read-out and setting: to `O=C(N[C@H]1CC[C@H](C(=O)O)CC1)c1cnn2ccc(N3CCC[C@@H]3c3cc(F)ccc3F)nc12` [Example 33, Trans-4-(5-((R)-2-(2,5-difluorophenyl)pyrrolidin-1-yl)pyrazolo[1,5-a]pyrimidine-3-carboxamido)cyclohexanecarboxylic acid] belongs 23.4 nM; to `NS(=O)(=O)N1CCC(NC(=O)c2cnn3ccc(N4CCC[C@@H]4c4cc(F)ccc4F)nc23)CC1` [Example 45, (R)-5-(2-(2,5-difluorophenyl)pyrrolidin-1-yl)-N-(1-sulfamoylpiperidin-4-yl)pyrazolo[1,5-a]pyrimidine-3-carboxamide], 195 nM.

Another test deals with TrkA (histidine-tagged recombinant human TrkA, cytoplasmic domain) (Homo sapiens (Human), UniProt P04629). As to the kind of experiment: TrkA ELISA Assay. The test is classed as biochemical. Conditions: Table 1; ELISA, 500 μM ATP; read-out: TrkA Enzyme IC50. On the procedure:
An enzyme-linked immunosorbant assay (ELISA) was used to assess TrkA kinase activity in the presence of inhibitors. Immulon 4HBX 384-well microtiter plates (Thermo part #8755) were coated with a 0.025 mg/mL solution of poly (Glu, Ala, Tyr; 6:3:1; Sigma P3899). […] The reaction mixture was removed from the plate by washing with PBS containing 0.1% (v/v) Tween 20. The phosphorylated reaction product was detected using 0.2 μg/mL of a phosphotyrosine specific monoclonal antibody (clone PY20) conjugated to horseradish peroxidase in conjunction with the TMB Peroxidase Substrate System (KPL). After the addition of 1M phosphoric acid, the chromogenic substrate color intensity was quantitated via absorbance at 450 nm.
`Cc1ncc(F)cc1[C@H]1CCCN1c1ccn2ncc(C(=O)N[C@H]3CC[C@H](O)CC3)c2n1` [Example 194, 5-((R)-2-(5-fluoro-2-methylpyridin-3-yl)pyrrolidin-1-yl)-N-((trans)-4-hydroxycyclohexyl)pyrazolo[1,5-a]pyrimidine-3-carboxamide]: the IC50 came out at 4.7 nM. Still for that read-out and setting: to `O=C(NC1(C(=O)O)CC1)c1cnn2ccc(N3CCC[C@@H]3c3cc(F)ccc3F)nc12` [Example 84, (R)-1-(5-(2-(2,5-difluorophenyl)pyrrolidin-1-yl)pyrazolo[1,5-a]pyrimidine-3-carboxamido)cyclopropanecarboxylic acid] belongs 21 nM; to `CS(=O)(=O)N1CCC(NC(=O)c2cnn3ccc(N4CCC[C@@H]4c4cc(F)ccc4F)nc23)CC1` [Example 44, (R)-5-(2-(2,5-difluorophenyl)pyrrolidin-1-yl)-N-(1-(methylsulfonyl)piperidin-4-yl)pyrazolo[1,5-a]pyrimidine-3-carboxamide], 1.5 nM; to `CS(=O)(=O)NCCNC(=O)c1cnn2ccc(N3CCC[C@@H]3c3cc(F)ccc3F)nc12` [Example 46, (R)-5-(2-(2,5-difluorophenyl)pyrrolidin-1-yl)-N-(2-(methylsulfonamido)ethyl)pyrazolo[1,5-a]pyrimidine-3-carboxamide], 3.3 nM. Still for that read-out and setting: to `C[C@@H](NC(=O)c1cnn2ccc(N3[C@H](CO)CC[C@@H]3c3cncc(F)c3)nc12)C(F)(F)F` [Example 212, 5-((2R,5S)-2-(5-fluoropyridin-3-yl)-5-(hydroxymethyl)pyrrolidin-1-yl)-N—((R)-1,1,1-trifluoropropan-2-yl)pyrazolo[1,5-a]pyrimidine-3-carboxamide] belongs 38 nM; to `C[C@H](NC(=O)c1cnn2ccc(N3[C@H](CO)CC[C@@H]3c3cncc(F)c3)nc12)C(F)(F)F` [Example 213, 5-((2R,5S)-2-(5-fluoropyridin-3-yl)-5-(hydroxymethyl)pyrrolidin-1-yl)-N—((S)-1,1,1-trifluoropropan-2-yl)pyrazolo[1,5-a]pyrimidine-3-carboxamide], 6.8 nM; to `CC(C)(C#N)NC(=O)c1cnn2ccc(N3CCC[C@@H]3c3cncc(F)c3)nc12` [Example 69, (R)—N-(2-cyanopropan-2-yl)-5-(2-(5-fluoropyridin-3-yl)pyrrolidin-1-yl)pyrazolo[1,5-a]pyrimidine-3-carboxamide], 60.3 nM. Still for that read-out and setting: to `CCc1ncc(F)cc1[C@H]1CCCN1c1ccn2ncc(C(=O)N[C@H]3CC[C@H](O)CC3)c2n1` [Example 199, 5-((R)-2-(2-ethyl-5-fluoropyridin-3-yl)pyrrolidin-1-yl)-N-((trans)-4-hydroxycyclohexyl)pyrazolo[1,5-a]pyrimidine-3-carboxamide] belongs 3.6 nM.

Regarding `N#CCNC(=O)c1cnn2ccc(N3CCC[C@@H]3c3cc(F)ccc3F)nc12` [Example 39, (R)—N-(cyanomethyl)-5-(2-(2,5-difluorophenyl)pyrrolidin-1-yl)pyrazolo[1,5-a]pyrimidine-3-carboxamide], the IC50 stood at 0.7 nM. Consider `Cc1ncc(F)cc1[C@H]1CCCN1c1ccn2ncc(C(=O)N[C@H]3CC[C@@H](O)CC3)c2n1` [Example 195, 5-((R)-2-(5-fluoro-2-methylpyridin-3-yl)pyrrolidin-1-yl)-N-((cis)-4-hydroxycyclohexyl)pyrazolo[1,5-a]pyrimidine-3-carboxamide], for which the concentration for half-maximal inhibition (IC50) came to 7.7 nM. The same measure, in the same setting: to `O=C(O)C1CCN(C(=O)c2cnn3ccc(N4CCC[C@@H]4c4cc(F)ccc4F)nc23)CC1` [Example 11, (R)-1-(5-(2-(2,5-difluorophenyl)pyrrolidin-1-yl)pyrazolo[1,5-a]pyrimidine-3-carbonyl)piperidine-4-carboxylic acid] belongs 777 nM. On the same count and under the same terms, to `CCc1cc(NC(=O)c2cnn3ccc(N4CCC[C@@H]4c4cc(F)cnc4OC)nc23)[nH]n1` [Example 243, (R)-N-(3-ethyl-1H-pyrazol-5-yl)-5-(2-(5-fluoro-2-methoxypyridin-3-yl)pyrrolidin-1-yl)pyrazolo[1,5-a]pyrimidine-3-carboxamide] belongs 9 nM; to `O=C(N[C@H]1CC[C@H](C(=O)O)CC1)c1cnn2ccc(N3CCC[C@@H]3c3cc(F)ccc3F)nc12` [Example 33, Trans-4-(5-((R)-2-(2,5-difluorophenyl)pyrrolidin-1-yl)pyrazolo[1,5-a]pyrimidine-3-carboxamido)cyclohexanecarboxylic acid], 1.5 nM.

The same test, now with this note: Table 2; read-out: TrkA IC50.
Turning to `Cc1ncc(F)cc1[C@H]1CCCN1c1ccn2ncc(C(=O)N[C@H]3CC[C@H](O)CC3)c2n1` [Example 194, 5-((R)-2-(5-fluoro-2-methylpyridin-3-yl)pyrrolidin-1-yl)-N-((trans)-4-hydroxycyclohexyl)pyrazolo[1,5-a]pyrimidine-3-carboxamide], the IC50 worked out at 4.6 nM.

For the origin of these results see patent US8791123B2, “Substituted pyrazolo[1,5-a]pyrimidine compounds as Trk kinase inhibitors” (Array Biopharma, Inc., priority 2009, dated 2014).
